Here are results for one compound from patent US20030148462A1, “Dual inhibition of sister chromatid separation at metaphase” (President and fellows of Harvard College, priority 2001, published 2003).

The subject of this experiment is CDC2. Particulars: high-Δ90 extract.

Consider `CC[C@H](CO)Nc1nc(NCc2ccccc2)c2ncn(C(C)C)c2n1` [roscovitine], for which the “CDC2 activity (histone H1 kinase)” value was “reduced the CDC2 activity to the level of a low-Δ90 extract”.
